From patent US9867884B2, “Vascular delivery systems” (Ben-Gurion University of the Negev Research and Development …, priority 2008, dated 2018)

Target: T1, E-selectin (Homo sapiens, UniProt P16581)
T1 sequence (P16581 22-556 limits assumed): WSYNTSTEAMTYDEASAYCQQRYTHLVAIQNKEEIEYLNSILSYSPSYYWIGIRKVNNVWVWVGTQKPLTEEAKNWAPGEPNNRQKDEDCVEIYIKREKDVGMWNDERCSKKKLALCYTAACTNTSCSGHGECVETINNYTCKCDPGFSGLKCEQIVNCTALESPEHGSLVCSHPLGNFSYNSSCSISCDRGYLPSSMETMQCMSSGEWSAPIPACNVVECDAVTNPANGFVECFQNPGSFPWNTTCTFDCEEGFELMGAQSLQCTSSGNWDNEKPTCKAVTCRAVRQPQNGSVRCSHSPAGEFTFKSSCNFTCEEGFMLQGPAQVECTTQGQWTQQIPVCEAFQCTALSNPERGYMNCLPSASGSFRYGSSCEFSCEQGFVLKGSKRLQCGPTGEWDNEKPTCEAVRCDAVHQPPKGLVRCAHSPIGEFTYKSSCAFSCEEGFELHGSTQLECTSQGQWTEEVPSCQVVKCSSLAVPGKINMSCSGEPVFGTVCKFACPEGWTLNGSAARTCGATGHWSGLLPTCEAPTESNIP
Assay: Inhibition of HL-60 adhesion to recombinant soluble E-selectin coated plates (competitive inhibition assay)
Details: monomers, HL-60 adhesion to immobilized E-selectin, 15 min (FIG. 3A); read-out: Inhibition of 50% binding (IC50) value
Procedure: FIG. 3A-C depicts percentage of inhibition of HL-60 adhesion to recombinant soluble E-selectin coated plates is determined using ELISA plate reader, as described previously (Ramphal J Y, Hiroshige M, Lou B, Gaudino J J, Hayashi M, Chen S M, et al. Ligand interactions with Eselectin. Identification of a new binding site for recognition of N-acyl aromatic glucosamine substituents of sialyl Lewis X. J Med Chem 1996; 39(7):1357-60.). A plate with immobilized Eselectin is exposed to HL-60 cells (which express the natural sLe^x ligand on the cell membrane) in the presence and absence of P-sLe^x, P-QA and pHPMA for 15 min at different concentrations.
The percentage of bound HL-60 cells is determined with o-phenylenediamine as a substrate for myeloperoxidases released from lysed cells. […]
Affinity of Esbp and P-Esbp to E-selectin was evaluated by a competitive inhibition assay of HL-60 to immobilized E-selectin. […]
The percentage of inhibition of HL-60 adhesion to recombinant soluble E-selectin coated plates is studied using ELISA plate reader, as described previously (Ramphal J Y, Hiroshige M, Lou B, Gaudino J J, Hayashi M, Chen S M, et al. Ligand interactions with E-selectin. Identification of a new binding site for recognition of N-acyl aromatic glucosamine substituents of sialyl Lewis X. J Med Chem 1996; 39(7):1357-60.). […]

- IC50: 1500 µM
Substance: sialyl Lewis X [sLe^x]
